Where a name gives a salt, the structure may show the parent alone.
Target: T1, cat T1R1/T1R3 receptor (Felis catus, UniProt A0ABI7Z2I4)
T1 sequence (A0ABI7Z2I4 171-420): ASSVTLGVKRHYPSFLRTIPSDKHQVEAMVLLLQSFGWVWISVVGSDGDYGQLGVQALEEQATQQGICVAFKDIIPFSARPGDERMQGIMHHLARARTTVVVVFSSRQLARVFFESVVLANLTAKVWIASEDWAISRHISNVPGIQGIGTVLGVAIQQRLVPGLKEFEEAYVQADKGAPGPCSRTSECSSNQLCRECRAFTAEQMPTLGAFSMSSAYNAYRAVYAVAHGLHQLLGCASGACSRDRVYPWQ
T1 sequence (Q49KI5 25-865 E206Q/N523D/F654L partner): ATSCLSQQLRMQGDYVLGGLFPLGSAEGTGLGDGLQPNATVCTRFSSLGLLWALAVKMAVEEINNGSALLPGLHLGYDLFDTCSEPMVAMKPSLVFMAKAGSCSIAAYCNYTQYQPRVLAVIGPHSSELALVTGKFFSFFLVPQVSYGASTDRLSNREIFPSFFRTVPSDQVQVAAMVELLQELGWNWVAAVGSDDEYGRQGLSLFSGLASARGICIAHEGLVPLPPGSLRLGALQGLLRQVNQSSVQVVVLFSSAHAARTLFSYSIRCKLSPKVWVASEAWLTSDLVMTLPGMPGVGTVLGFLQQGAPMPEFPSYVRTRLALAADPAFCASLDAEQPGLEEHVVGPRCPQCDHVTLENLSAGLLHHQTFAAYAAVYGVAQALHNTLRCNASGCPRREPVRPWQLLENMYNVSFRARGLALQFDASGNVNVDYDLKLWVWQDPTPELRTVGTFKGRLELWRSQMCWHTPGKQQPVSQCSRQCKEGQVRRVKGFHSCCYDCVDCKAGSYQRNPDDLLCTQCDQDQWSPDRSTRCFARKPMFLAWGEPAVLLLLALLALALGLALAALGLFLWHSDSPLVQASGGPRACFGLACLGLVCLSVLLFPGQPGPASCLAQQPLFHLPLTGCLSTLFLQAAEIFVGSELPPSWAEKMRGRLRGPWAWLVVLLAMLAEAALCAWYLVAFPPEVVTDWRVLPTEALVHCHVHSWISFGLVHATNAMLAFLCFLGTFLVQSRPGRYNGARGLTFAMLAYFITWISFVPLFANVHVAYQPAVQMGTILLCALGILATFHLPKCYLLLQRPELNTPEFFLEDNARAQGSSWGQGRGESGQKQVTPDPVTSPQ
Assay type: cell-based
Conditions: +Alanine (20 mM)

Nc1ncnc2c1ncn2C1OC(COP(=O)(O)OS(=O)(=O)O)C(O)C1O (stereo not shown) [Adenosine 5′-phosphosulfate sodium salt, Adenosine 5′-phosphosulfate]
Activity: active
